In PubChem BioAssay AID1863 (Southern Research Specialized Biocontainment Screening …, 2009):
The list shows a part of the results, in another mix than the full data. Potency and affinity values are given separately. Some salts and complexes are drawn in separate pieces, as the source files them; their charges need not balance. Calls of active or inactive are those of the source.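 The calls were made as follows: active = inhibition over 29.93%, a cutoff 3 SD above the screen mean, later confirmed by dose response; inconclusive = inhibition over 29.93% but no dose response follow-up; inactive = inhibition at most 29.93% or unconfirmed.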

Experiment: PhoP-dependent GFP reporter repression – Salmonella Typhimurium, primary screen (AID 1863);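 also: 0% = low Mg2+ inducing control and 100% = high Mg2+ repressing control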
Conditions: S. Typhimurium PhoP-regulated promoter GFP reporter, 4 h; at 50 µM; active compounds read high
For CP(=O)(Nc1ccccc1Br)Oc1ccccc1 (stereo unspecified), the inhibition was inactive: 8.5%. For COc1ccccc1OP(C)(=O)Nc1ccccc1 (stereo unspecified), the inhibition was inactive: 1.18%. In the case of CP(=S)(Nn1cnnc1)Oc1ccccc1 (stereo unspecified), the inhibition is reported as inactive: 2.5%. In the case of CP(=O)(Nc1ccccn1)Oc1ccc(Cl)cc1 (stereo unspecified), the inhibition is reported as inactive: 3.46%. For CCOC(=O)c1ccc(NP(C)(=O)Oc2ccc(OC)cc2)cc1 (stereo unspecified), the inhibition was inactive: -9.71%. For CCOP(C)(=S)SCC(=O)NC(C)C(=O)O (stereo unspecified), the inhibition was inactive: -3.04%. For CP(=O)(NC(=O)Nc1ccccc1)Oc1ccccc1 (stereo unspecified), the inhibition was inactive: -4.57%. For CCc1ccc(OP(C)(=O)N2CCN(c3ccc([N+](=O)[O-])cc3)CC2)cc1 (stereo unspecified), the inhibition was inactive: 1.41%. In the case of Cc1cc(C)cc(OP(C)(=O)Nc2ccc(SC(F)(F)F)cc2)c1 (stereo unspecified), the inhibition is reported as inactive: 12.3%. With Cc1cccc(C)c1OP(C)(=O)Nc1ccc(SC(F)(F)F)cc1 (stereo unspecified) the inhibition was inactive: -7.64%. With CP(=O)(Nc1ccc(SC(F)(F)F)cc1)Oc1ccc(Cl)cc1 (stereo unspecified) the inhibition was inactive: -5.54%. For CP(=O)(Oc1ccccc1)OC(c1ccccc1)C(F)(F)F (stereo unspecified), the inhibition was inactive: 5.96%. In the case of CCN(CC)CCCOC(=O)C(O)(c1ccccc1)c1ccccc1, the inhibition is reported as inactive: -3.99%. In the case of Cc1cc(C)cc(OP(C)(N)=O)c1 (stereo unspecified), the inhibition is reported as inactive: 5.45%. With COc1ccccc1OP(C)(=O)Nc1cc(Cl)ccc1C (stereo unspecified) the inhibition was inactive: 4.3%. For COc1ccc(OP(C)(=O)Nc2cccc(F)c2)cc1 (stereo unspecified), the inhibition was inactive: -2.16%. For COc1ccccc1OP(C)(=O)Nc1ccc(C)cc1 (stereo unspecified), the inhibition was inactive: 5.21%. In the case of Cc1ccc(NP(C)(=O)Oc2ccccc2)c(C)c1 (stereo unspecified), the inhibition is reported as inactive: 8.83%. In the case of CCOC(=O)c1ccc(NP(C)(=O)Oc2ccccc2)cc1 (stereo unspecified), the inhibition is reported as inactive: -4.48%. For O=[N+]([O-])c1ccc2c(c1)C=Nc1ccccc1O2, the inhibition was inactive: 3.26%. For CC(C)(C)c1ccc(OP(C)(=O)Nc2ccc(SC(F)(F)F)cc2)cc1 (stereo unspecified), the inhibition was inactive: 0.09%. For Cc1cccc(C)c1OP(C)(N)=O (stereo unspecified), the inhibition was inactive: 1.31%. With O=[N+]([O-])c1cc([N+](=O)[O-])c(Nc2cccnc2)c([N+](=O)[O-])c1 the inhibition was inactive: 0.42%. For CC1=NCCc2c1[nH]c1ccccc21.O=[N+]([O-])c1cc([N+](=O)[O-])c(O)c([N+](=O)[O-])c1, the inhibition was inactive: 35%. For O=C(O)c1cccc(Nc2c([N+](=O)[O-])cc([N+](=O)[O-])cc2[N+](=O)[O-])c1, the inhibition was inactive: -7.06%. With Cc1ccc(C)c(NP(C)(=O)Oc2ccccc2)c1 (stereo unspecified) the inhibition was inactive: 3.33%. For Cc1cc(C)cc(OP(C)(=O)Nc2ccccn2)c1 (stereo unspecified), the inhibition was inactive: 7.72%. For CP(=O)(Nc1cccc(Br)c1)Oc1ccccc1 (stereo unspecified), the inhibition was inactive: 1.93%. For CCOC(=O)c1ccc(NP(C)(=O)Oc2cc(C)cc(C)c2)cc1 (stereo unspecified), the inhibition was inactive: -21.6%. In the case of Cc1cc(C)cc(OP(C)(=O)Nc2ccc(C)cc2C)c1 (stereo unspecified), the inhibition is reported as inactive: 12.7%. For COc1ccccc1OP(C)(=O)Nc1cccc(Br)c1 (stereo unspecified), the inhibition was inactive: 2%. In the case of Cc1nc2ccc3ccccc3c2s1.O=[N+]([O-])c1cc([N+](=O)[O-])c(O)c([N+](=O)[O-])c1, the inhibition is reported as inactive: -2.86%. For O=[N+]([O-])c1cc([N+](=O)[O-])c(-n2nnc3ccccc32)c([N+](=O)[O-])c1, the inhibition was inactive: 8.35%. In the case of CCCOc1ccc(NP(C)(=O)Oc2ccc(Cl)cc2)cc1 (stereo unspecified), the inhibition is reported as inactive: -5.57%. With CP(=O)(Nc1ccc(SC(F)(F)F)cc1)Oc1ccccc1 (stereo unspecified) the inhibition was inactive: 3.31%. With COc1ccccc1OP(C)(=O)Nc1c(C)cccc1C (stereo unspecified) the inhibition was inactive: -0.94%. For CN1CCCCC1COC(=O)C1(O)c2ccccc2CCc2ccccc21 (stereo unspecified), the inhibition was inactive: -4.98%. With CC1=C2N=C(C=C3N=C(C(C)=C4[N-][C@@](C)([C@@H]5N=C1[C@](C)(CCC(=O)NC[C@@H](C)OP(=O)([O-])O[C@H]1[C@@H](O)[C@@H](n6cnc7cc(C)c(C)cc76)O[C@@H]1CO)[C@H]5CC(N)=O)[C@@](C)(CC(N)=O)[C@@H]4CCC(N)=O)[C@@](C)(CC(N)=O)[C@@H]3CCC(N)=O)C(C)(C)[C@@H]2CCC(N)=O.[C-]#N.[Co+3] the inhibition was inactive: 9.73%. For O=[N+]([O-])c1cc([N+](=O)[O-])c(Nc2nnnn2CCO)c([N+](=O)[O-])c1, the inhibition was inactive: -0.095%. With CCOC(=O)C(CC)C1=NC(C)(C)Cc2ccccc21.O=[N+]([O-])c1cc([N+](=O)[O-])c(O)c([N+](=O)[O-])c1 (stereo unspecified) the inhibition was inactive: -1.21%. For O=[N+]([O-])c1ccc(OP2(=O)COCCO2)cc1 (stereo unspecified), the inhibition was inactive: 2.25%. With O=[N+]([O-])c1cc([N+](=O)[O-])c(NCC2CCS(=O)(=O)C2)c([N+](=O)[O-])c1 (stereo unspecified) the inhibition was inactive: 6.14%. For Cc1cc(-c2cccc3ccccc23)c(C)cn1.O=[N+]([O-])c1cc([N+](=O)[O-])c(O)c([N+](=O)[O-])c1, the inhibition was inactive: -0.69%. For CN(C)CCOC(=O)C(O)(c1ccccc1)C1CCCCC1 (stereo unspecified), the inhibition was inactive: 6.68%. In the case of COc1ccc(NP(C)(=O)Oc2ccccc2OC)cc1 (stereo unspecified), the inhibition is reported as inactive: 6.47%. With COc1ccc(OP(C)(=O)Nc2cccc(Br)c2)cc1 (stereo unspecified) the inhibition was inactive: -9.93%. With Cc1ccccc1NP(C)(=O)Nc1ccccc1C the inhibition was inactive: 4.36%. With CP(=O)(Nc1ccc2c(c1)OCCO2)Oc1ccccc1 (stereo unspecified) the inhibition was inactive: -2.79%. In the case of CCOP(C)(=S)SCC(=O)NC(C)(CC)C(=O)O (stereo unspecified), the inhibition is reported as inactive: -7.82%. For CP(=O)(Nc1ccc(SC(F)(F)F)cc1)Oc1ccc(F)cc1 (stereo unspecified), the inhibition was inactive: -8.9%. For COc1ccc2c(c1O)-c1c(O)c(OC)cc3c1[C@H](C2)[N+](C)(C)CC3.O=[N+]([O-])c1cc([N+](=O)[O-])c([O-])c([N+](=O)[O-])c1[O-], the inhibition was inactive: -9.75%. With O=C(OC1CN2CCC1CC2)c1ccc([N+](=O)[O-])cc1 (stereo unspecified) the inhibition was inactive: -4.18%. In the case of O=C(OCCN1CCN(CCOCc2ccccc2)CC1)C(O)(c1ccccc1)c1ccccc1, the inhibition is reported as inactive: -0.5%. With CP(=O)(Nc1ccccc1F)Oc1ccccc1 (stereo unspecified) the inhibition was inactive: 17.8%. With CC(C)c1ccc(OP(C)(=O)Nc2ccc(SC(F)(F)F)cc2)cc1 (stereo unspecified) the inhibition was inactive: -33.3%. For CP(=O)(Nc1ccccc1)Oc1ccc(F)cc1 (stereo unspecified), the inhibition was inactive: 0.84%. In the case of CCCCCOc1ccc(NP(C)(=O)Oc2ccc(Cl)cc2Cl)cc1 (stereo unspecified), the inhibition is reported as inactive: -6.68%. For O=[N+]([O-])c1cc([N+](=O)[O-])c(OC2CCCCC2O)c([N+](=O)[O-])c1 (stereo unspecified), the inhibition was inactive: 1.53%. With CCN(CC)CCCOC(=O)C(O)(c1ccccc1)C1CCCCC1 (stereo unspecified) the inhibition was inactive: 5.56%. For CCOC(=O)c1ccc(NP(C)(=O)Oc2ccc(F)cc2)cc1 (stereo unspecified), the inhibition was inactive: 8.75%. For COc1ccc(OP(C)(=O)Nc2ccc(SC(F)(F)F)cc2)cc1 (stereo unspecified), the inhibition was inactive: -11.1%. In the case of CP(=O)(Nc1ccc(Cl)cc1Cl)Oc1ccccc1 (stereo unspecified), the inhibition is reported as inactive: 7.22%. With CP(=O)(OCCOc1ccccc1)OCCOc1ccccc1 the inhibition was inactive: 4.94%. For Cc1nc2ccc3ccccc3c2o1.O=[N+]([O-])c1cc([N+](=O)[O-])c(O)c([N+](=O)[O-])c1, the inhibition was inactive: 6.37%. For COc1ccccc1OP(C)(=O)Nc1ccc(C)c(C)c1 (stereo unspecified), the inhibition was inactive: -3.08%. For COc1ccc(OP(C)(=O)Nc2ccccc2Br)cc1 (stereo unspecified), the inhibition was inactive: 1.83%. With Cc1cc(C)cc(OP(C)(=O)Nc2cccc(C(F)(F)F)c2)c1 (stereo unspecified) the inhibition was inactive: -1.77%. With CP(=O)(Nc1ccccn1)Oc1ccccc1 (stereo unspecified) the inhibition was inactive: 4.9%. With COc1ccccc1OP(C)(=O)Nc1ccc(C)cc1C (stereo unspecified) the inhibition was inactive: 1.8%. With CCc1ccc(OP(C)(=O)O)cc1 the inhibition was inactive: -7.62%. For Cc1c(NP(C)(=O)Oc2ccc(C(C)C)cc2)c(=O)n(-c2ccccc2)n1C (stereo unspecified), the inhibition was inactive: -3.02%. In the case of O=[N+]([O-])c1cc([N+](=O)[O-])c(Nc2ccccn2)c([N+](=O)[O-])c1, the inhibition is reported as inactive: 2.94%. With COc1ccc(OP(C)(=O)Nc2ccccn2)cc1 (stereo unspecified) the inhibition was inactive: -2.32%. With CN(C)CCOC(=O)C(O)(c1ccccc1)C1CCCC1 (stereo unspecified) the inhibition was inactive: 3.96%. In the case of COc1ccccc1OP(C)(=O)Nc1ccc(Br)cc1 (stereo unspecified), the inhibition is reported as inactive: -0.02%. For CN(C)C(=O)c1c([N+](=O)[O-])cc([N+](=O)[O-])cc1[N+](=O)[O-], the inhibition was inactive: -7.04%. In the case of COc1ccccc1OP(C)(=O)Nc1ccccc1Br (stereo unspecified), the inhibition is reported as inactive: -7.78%. In the case of CC(C)(C)c1ccc(OP(C)(=O)O)cc1, the inhibition is reported as inactive: 0.11%. With CP(=O)(Nc1ccc(Cl)cc1)Oc1ccc(F)cc1 (stereo unspecified) the inhibition was inactive: -0.82%. With O=C(OCCCN1CCCC1)C(O)(c1ccccc1)C1CCCCC1 (stereo unspecified) the inhibition was inactive: -2.52%. With CP(=O)(Oc1ccccc1)N1CCOC1=O (stereo unspecified) the inhibition was inactive: 14.6%. For CCc1ccc(OP(C)(=O)Nc2cccnc2)cc1 (stereo unspecified), the inhibition was inactive: -10.3%. In the case of CCN(CC)CC(O)COC(=O)C(O)(c1ccccc1)C1CCCCC1 (stereo unspecified), the inhibition is reported as inactive: 7.09%. In the case of COc1ccc(OP(C)(=O)Nc2ccc(Br)cc2)cc1 (stereo unspecified), the inhibition is reported as inactive: 15.5%. For CCOC(=O)c1ccc(NP(C)(=O)Oc2ccc(Cl)cc2)cc1 (stereo unspecified), the inhibition was inactive: -0.05%. In the case of CP(=O)(OC12CC3CC(CC(C3)C1)C2)OC12CC3CC(CC(C3)C1)C2, the inhibition is reported as inactive: 5.1%.
